From the Kinase Knowledgebase extract (Sharma et al. 2016)

Chains of the proteins cited; added tags and fusions are not shown. Lines headed by an entry give the natural chain unless they say otherwise; changes in a name come on top.
UniProt P42338: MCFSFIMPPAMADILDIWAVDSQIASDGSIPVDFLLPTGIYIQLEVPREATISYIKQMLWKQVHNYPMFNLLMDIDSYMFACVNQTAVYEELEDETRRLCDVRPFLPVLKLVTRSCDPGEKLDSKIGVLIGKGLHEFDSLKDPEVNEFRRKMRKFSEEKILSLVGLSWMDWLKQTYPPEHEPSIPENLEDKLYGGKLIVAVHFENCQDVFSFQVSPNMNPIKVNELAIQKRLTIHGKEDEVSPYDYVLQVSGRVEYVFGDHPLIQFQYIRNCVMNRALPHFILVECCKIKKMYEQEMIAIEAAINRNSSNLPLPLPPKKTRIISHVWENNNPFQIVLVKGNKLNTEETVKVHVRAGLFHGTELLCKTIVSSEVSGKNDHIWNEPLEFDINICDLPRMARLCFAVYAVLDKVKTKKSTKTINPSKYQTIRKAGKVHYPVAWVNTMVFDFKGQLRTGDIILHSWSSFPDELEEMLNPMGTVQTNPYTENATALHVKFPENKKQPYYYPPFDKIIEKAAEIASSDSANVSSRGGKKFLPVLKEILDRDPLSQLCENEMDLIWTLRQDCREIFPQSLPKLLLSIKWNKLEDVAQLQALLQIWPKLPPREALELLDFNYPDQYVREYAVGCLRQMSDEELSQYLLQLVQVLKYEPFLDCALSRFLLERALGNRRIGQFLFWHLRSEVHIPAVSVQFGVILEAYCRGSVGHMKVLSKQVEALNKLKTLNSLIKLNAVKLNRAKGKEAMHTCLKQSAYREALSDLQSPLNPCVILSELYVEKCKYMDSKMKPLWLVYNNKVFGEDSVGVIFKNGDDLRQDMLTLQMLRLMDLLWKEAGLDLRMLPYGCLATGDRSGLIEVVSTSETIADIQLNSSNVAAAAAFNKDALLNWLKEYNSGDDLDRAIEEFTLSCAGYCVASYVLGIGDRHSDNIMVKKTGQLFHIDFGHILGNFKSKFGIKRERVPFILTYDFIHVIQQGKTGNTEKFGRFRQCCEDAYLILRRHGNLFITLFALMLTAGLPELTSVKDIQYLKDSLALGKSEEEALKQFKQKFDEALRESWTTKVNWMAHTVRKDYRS

Biological target: PIK3CB (Human) (UniProt P42338)
Test: Enzyme Assay

IC50: 52 nM
SMILES: Cc1cc(C(C)Nc2ccccc2)c2nc(N3CCOCC3)cc(=O)n2c1 (stereo unspecified)
